Data reported in publication PMC5061470, “Promiscuous targeting of bromodomains by bromosporine identifies BET proteins as master regulators of primary transcription response in leukemia” (Science Advances, 2016).

By UniProt entry, the sequences of proteins in these tests, tags left out. Where a name states a change or a piece, a line headed by the entry shows the natural chain unless it says otherwise. Residues count along the entry.
UniProt P25440, 74-180 limits assumed: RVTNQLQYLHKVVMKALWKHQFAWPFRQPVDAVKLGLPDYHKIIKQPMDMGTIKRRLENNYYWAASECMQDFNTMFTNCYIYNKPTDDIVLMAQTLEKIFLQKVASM
UniProt P43116: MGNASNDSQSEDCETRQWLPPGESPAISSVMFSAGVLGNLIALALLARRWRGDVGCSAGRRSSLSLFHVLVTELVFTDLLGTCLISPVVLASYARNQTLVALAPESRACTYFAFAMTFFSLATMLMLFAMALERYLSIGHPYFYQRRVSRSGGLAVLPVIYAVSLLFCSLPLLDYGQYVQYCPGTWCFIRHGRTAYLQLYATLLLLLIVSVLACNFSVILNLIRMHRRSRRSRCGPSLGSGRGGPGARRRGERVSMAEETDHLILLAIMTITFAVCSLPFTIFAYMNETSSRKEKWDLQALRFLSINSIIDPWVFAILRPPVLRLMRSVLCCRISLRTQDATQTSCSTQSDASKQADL
UniProt P21452, whole entry: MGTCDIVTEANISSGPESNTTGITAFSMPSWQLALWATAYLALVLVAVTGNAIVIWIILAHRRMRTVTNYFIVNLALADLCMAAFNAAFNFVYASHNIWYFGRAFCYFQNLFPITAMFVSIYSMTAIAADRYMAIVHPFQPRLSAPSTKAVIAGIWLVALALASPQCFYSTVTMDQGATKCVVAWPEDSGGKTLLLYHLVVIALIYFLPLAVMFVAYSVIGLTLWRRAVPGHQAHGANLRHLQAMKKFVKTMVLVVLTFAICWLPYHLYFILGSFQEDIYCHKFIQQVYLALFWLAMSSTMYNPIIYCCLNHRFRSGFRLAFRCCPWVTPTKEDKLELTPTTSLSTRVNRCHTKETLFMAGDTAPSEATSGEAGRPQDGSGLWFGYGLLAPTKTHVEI

What was measured:
BRD2(1) = BRD2(1) (Homo sapiens, UniProt P25440); assay: biochemical
EP2 (h) = EP2 (h) (Homo sapiens, UniProt P43116); assay type: binding
NK2 (h) = NK2 (h) (Homo sapiens, UniProt P21452); assay: biochemical; assay type: binding

SMILES: CCOC(=O)Nc1cc(-c2ccc(C)c(NS(C)(=O)=O)c2)nn2c(C)nnc12 [BSP, ethyl (3-methyl-6-(4-methyl-3-(methylsulfonamido)phenyl)-[1,2,4]triazolo[4,3-b]pyridazin-8-yl)carbamate]
- Kd (BRD2(1)): 97.1 ± 6.7 nM

SMILES: CCCCC[C@H](O)/C=C/[C@H]1[C@H](O)CC(=O)[C@@H]1C/C=C\CCCC(=O)O [PGE2]
- IC50 (EP2 (h)): 3 nM
- Ki (EP2 (h); read-out: Ki Ref.): 1.5 nM

SMILES: CCCC[C@H](NC(=O)[C@H](CC(C)C)NC(=O)CNC(=O)[C@@H](NC(=O)[C@H](Cc1ccccc1)NC(=O)[C@H](CO)NC(=O)[C@@H](N)CC(=O)O)C(C)C)C(N)=O
- IC50 (NK2 (h)): 2.8 nM
- Ki (NK2 (h)): 1.5 nM
